Literature values as cited in article PMC8342319, “Predicting blood-to-plasma concentration ratios of drugs from chemical structures and volumes of distribution in humans” (Molecular Diversity, 2021).
Like-named read-outs stand apart in the source and are kept apart here. This is a selection: effects in other tests are not listed, and their absence says nothing.

Assays:
[1] = human, intravenous, cited from earlier work
plasma protein = conditions: median if multiple values were reported, cited from earlier work; for fp_Human: human plasma free fraction, ref numbers in Table S1
[2] = median if multiple values were reported, ref numbers in Table S1; cited from earlier work

For `CCC(=O)N(c1ccccc1)C1(COC)CCN(CCc2cccs2)CC1`, the “in vivo Vd_(L/kg)_Human” value ([1]; median if multiple values reported, Reference of Table S1) is listed as 9.400 L/kg.
For `CCC(=O)N(c1ccccc1)C1(COC)CCN(CCn2nnn(CC)c2=O)CC1`, the fp_Human (plasma protein) is listed as 0.080, the fp Human (free fraction in plasma) (plasma protein; human, collected value, ref: Table S1) is listed as 0.08 and the Rb Human (blood-to-plasma concentration ratio) [2] is listed as 0.63. For the same compound, the “in vivo Vd_(L/kg)_Human” value ([1]; median if multiple values were reported, ref numbers in Table S1) was 0.625 L/kg.
For `CCC(=O)N(c1ccccc1)C1CCN(CCc2ccccc2)CC1`, the fp_Human (plasma protein) is given as 0.160 and the Rb Human (blood-to-plasma concentration ratio) [2] is given as 0.99.
